The solubility is how much of the substance goes into solution per volume. A lower solubility goes with a poorly soluble substance. The EC50 is the midpoint of the concentration-response curve.

Protein sequences, listed by entry. Tags and fused reporters are not part of them. Residues count along the entry.
UniProt P47871, 26-477: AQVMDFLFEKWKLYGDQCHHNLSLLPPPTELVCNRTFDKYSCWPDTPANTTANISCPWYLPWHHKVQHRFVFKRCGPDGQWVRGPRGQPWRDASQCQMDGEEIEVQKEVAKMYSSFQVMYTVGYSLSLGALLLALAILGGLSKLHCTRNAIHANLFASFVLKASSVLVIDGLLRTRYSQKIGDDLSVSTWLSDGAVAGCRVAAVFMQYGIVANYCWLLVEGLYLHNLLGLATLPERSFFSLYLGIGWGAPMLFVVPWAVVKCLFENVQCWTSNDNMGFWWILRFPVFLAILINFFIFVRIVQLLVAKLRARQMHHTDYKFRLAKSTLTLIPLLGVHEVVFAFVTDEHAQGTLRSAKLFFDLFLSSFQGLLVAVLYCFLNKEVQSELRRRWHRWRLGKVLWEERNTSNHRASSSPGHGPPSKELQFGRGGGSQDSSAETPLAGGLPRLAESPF
UniProt P43220, 24-463: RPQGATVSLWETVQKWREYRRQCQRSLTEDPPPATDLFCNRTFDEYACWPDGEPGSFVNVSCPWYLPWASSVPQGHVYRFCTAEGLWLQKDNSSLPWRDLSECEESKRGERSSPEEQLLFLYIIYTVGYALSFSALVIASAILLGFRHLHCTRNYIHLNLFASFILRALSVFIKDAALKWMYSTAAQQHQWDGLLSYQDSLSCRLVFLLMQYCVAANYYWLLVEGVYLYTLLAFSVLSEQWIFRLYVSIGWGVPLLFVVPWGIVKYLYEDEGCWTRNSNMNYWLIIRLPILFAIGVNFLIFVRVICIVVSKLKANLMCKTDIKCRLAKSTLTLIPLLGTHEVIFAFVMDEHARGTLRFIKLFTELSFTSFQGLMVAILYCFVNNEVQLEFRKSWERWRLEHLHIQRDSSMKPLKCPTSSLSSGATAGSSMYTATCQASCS

The values below come from US20140100156A1 (SANOFI, priority 2012, published 2014).

Series [1] can be described thus: physchem. Format: physicochemical. The method, then:
Prior to the testing of solubility and stability of a peptide batch, its content was determined. Therefore, two parameters were investigated, its purity (HPLC-UV) and the amount of salt load of the batch (ion chromatography). Since synthesized peptides contain primarily trifluoroacetate anions, only anion chromatography was performed.
. Therefore, solutions from solid samples were prepared in different buffer systems with a concentration of 1.0 mg/mL compound based on the previously determined content. HPLC-UV was performed after 2 h of gentle agitation from the supernatant, which was obtained by 20 min of centrifugation at 4000 rpm.
This analysis also served as starting point (t0) for the stability testing.
Instrument: Agilent 1100, column: X-Bridge C18 3.5 μm 2.1×150 mm (Waters), eluent: A: H20+500 ppm TFA/B: Methanol, flow: 0.55 mL/min, gradient: 0-5 min: 10-60% B; 5-15 min: 60-99% B; detection: 214 nm.

For series [2], the target named is T1, human glucagon receptor (Homo sapiens, UniProt P47871).
T1 construct: expressed in transfected cells; host or cells: HEK-293
Put plainly: cAMP response (HTRF) of HEK-293 cells stably expressing human glucagon receptor. The series is classed as cell-based. The conditions noted are these: Table 5; cAMP, HEK-293; read-out: EC50 hGlucagon-R. (TR-FRET usually uses a lanthanide donor and a delayed reading to cut background.)

For series [3], the target named is T2, human GLP-1 receptor (Homo sapiens, UniProt P43220).
T2 construct: expressed in transfected cells; host or cells: HEK-293
Put plainly: cAMP response (HTRF) of HEK-293 cells stably expressing human GLP-1 receptor. Format: cell-based. The conditions noted are these: Table 5; cAMP, HEK-293; read-out: EC50 hGLP-1R.

Consider `CCCCCCCCCCCCCCCC(=O)N[C@@H](CCC(=O)NCCCC[C@H](NC(=O)[C@H](CCC(N)=O)NC(=O)[C@H](CCCCN)NC(=O)[C@H](CO)NC(=O)[C@H](CC(C)C)NC(=O)[C@H](CC(=O)O)NC(=O)[C@H](CO)NC(=O)[C@@H](NC(=O)[C@H](Cc1ccccc1)NC(=O)[C@@H](NC(=O)CNC(=O)[C@H](CCC(N)=O)NC(=O)[C@@H](CO)NC(=O)[C@@H](N)Cc1c[nH]cn1)[C@@H](C)O)[C@@H](C)O)C(=O)N[C@@H](CCC(=O)O)C(=O)N[C@@H](CO)C(=O)N[C@@H](CCCNC(=N)N)C(=O)N[C@@H](C)C(=O)N[C@@H](C)C(=O)NC(C)(C)C(=O)N[C@@H](CC(C)C)C(=O)N[C@@H](Cc1ccccc1)C(=O)N[C@H](C(=O)N[C@@H](CCC(=O)O)C(=O)N[C@@H](Cc1c[nH]c2ccccc12)C(=O)N[C@@H](CC(C)C)C(=O)N[C@@H](CCCCN)C(=O)N[C@@H](CC(N)=O)C(=O)NCC(=O)NCC(=O)N1CCC[C@H]1C(=O)N[C@@H](CO)C(=O)N[C@@H](CO)C(=O)NCC(=O)N[C@@H](C)C(=O)N1CCC[C@H]1C(=O)N1CCC[C@H]1C(=O)N1CCC[C@H]1C(=O)N[C@@H](CO)C(N)=O)[C@@H](C)CC)C(=O)O` [compound 121], for which the solubility at 2 h in series [1] (pH 4.5) was greater than 1000 µg/mL; in series [1] (pH 7.4), greater than 980 µg/mL. The EC50 in series [2] was determined as 0.0237 nM; in series [3], 0.0061 nM.
For `CCCCCCCCCCCCCCCC(=O)NCCCC[C@H](NC(=O)[C@H](CCC(N)=O)NC(=O)[C@H](CCCCN)NC(=O)[C@H](CO)NC(=O)[C@H](CC(C)C)NC(=O)[C@H](CC(=O)O)NC(=O)[C@H](CO)NC(=O)[C@@H](NC(=O)[C@H](Cc1ccccc1)NC(=O)[C@@H](NC(=O)CNC(=O)[C@H](CCC(N)=O)NC(=O)[C@@H](CO)NC(=O)[C@@H](N)Cc1c[nH]cn1)[C@@H](C)O)[C@@H](C)O)C(=O)N[C@@H](CCC(=O)O)C(=O)N[C@@H](CO)C(=O)N[C@@H](CCCNC(=N)N)C(=O)N[C@@H](CCCNC(=N)N)C(=O)N[C@@H](C)C(=O)N[C@@H](CCC(N)=O)C(=O)N[C@@H](CC(=O)O)C(=O)N[C@@H](Cc1ccccc1)C(=O)N[C@H](C(=O)N[C@@H](CCC(=O)O)C(=O)N[C@@H](Cc1c[nH]c2ccccc12)C(=O)N[C@@H](CC(C)C)C(=O)N[C@@H](CCCCN)C(=O)N[C@@H](CC(N)=O)C(=O)NCC(=O)NCC(=O)N1CCC[C@H]1C(=O)N[C@@H](CO)C(=O)N[C@@H](CO)C(=O)NCC(=O)N[C@@H](C)C(=O)N1CCC[C@H]1C(=O)N1CCC[C@H]1C(=O)N1CCC[C@H]1C(=O)N[C@@H](CO)C(=O)N[C@@H](CCCCN)C(N)=O)[C@@H](C)CC` [compound 112], the EC50 in series [2] is 0.0211 nM; in series [3], 0.0336 nM.
In the case of `CCCCCCCCCCCCCCCCCC(=O)N[C@@H](CCC(=O)NCCCC[C@H](NC(=O)[C@H](CCC(N)=O)NC(=O)[C@H](CCCCN)NC(=O)[C@H](CO)NC(=O)[C@H](CC(C)C)NC(=O)[C@H](CC(=O)O)NC(=O)[C@H](CO)NC(=O)[C@@H](NC(=O)[C@H](Cc1ccccc1)NC(=O)[C@@H](NC(=O)CNC(=O)[C@H](CCC(N)=O)NC(=O)[C@@H](CO)NC(=O)[C@@H](N)Cc1c[nH]cn1)[C@@H](C)O)[C@@H](C)O)C(=O)N[C@@H](CCC(=O)O)C(=O)N[C@@H](CO)C(=O)N[C@@H](CCCCN)C(=O)N[C@@H](C)C(=O)N[C@@H](C)C(=O)N[C@@H](CCC(N)=O)C(=O)N[C@@H](CC(=O)O)C(=O)N[C@@H](Cc1ccccc1)C(=O)N[C@H](C(=O)N[C@@H](CCC(=O)O)C(=O)N[C@@H](Cc1c[nH]c2ccccc12)C(=O)N[C@@H](CC(C)C)C(=O)N[C@@H](CCCCN)C(=O)N[C@@H](C)C(=O)NCC(=O)NCC(=O)N1CCC[C@H]1C(=O)N[C@@H](CO)C(=O)N[C@@H](CO)C(=O)NCC(=O)N[C@@H](C)C(=O)N1CCC[C@H]1C(=O)N1CCC[C@H]1C(=O)N1CCC[C@H]1C(=O)N[C@@H](CO)C(N)=O)[C@@H](C)CC)C(=O)O` [compound 26], the 50% effective concentration (EC50) in series [2] is 0.0054 nM; in series [3], 0.0051 nM.
The like results for `CCCCCCCCCCCCCCCC(=O)N[C@@H](CCC(=O)NCCCC[C@H](NC(=O)[C@H](CCC(N)=O)NC(=O)[C@H](CCCCN)NC(=O)[C@H](CO)NC(=O)[C@H](CC(C)C)NC(=O)[C@H](CC(=O)O)NC(=O)[C@H](CO)NC(=O)[C@@H](NC(=O)[C@H](Cc1ccccc1)NC(=O)[C@@H](NC(=O)CNC(=O)[C@H](CCC(N)=O)NC(=O)[C@@H](CO)NC(=O)[C@@H](N)Cc1c[nH]cn1)[C@@H](C)O)[C@@H](C)O)C(=O)N[C@@H](CCC(=O)O)C(=O)N[C@@H](CO)C(=O)N[C@@H](CCCNC(=N)N)C(=O)N[C@@H](CCCNC(=N)N)C(=O)N[C@@H](C)C(=O)N[C@@H](CCC(N)=O)C(=O)N[C@@H](CC(=O)O)C(=O)N[C@@H](Cc1ccccc1)C(=O)N[C@H](C(=O)N[C@@H](CCC(=O)O)C(=O)N[C@@H](Cc1c[nH]c2ccccc12)C(=O)N[C@@H](CC(C)C)C(=O)N[C@@H](CCCCN)C(=O)N[C@@H](CO)C(=O)NCC(=O)NCC(=O)N1CCC[C@H]1C(=O)N[C@@H](CO)C(=O)N[C@@H](CO)C(=O)NCC(=O)N[C@@H](C)C(=O)N1CCC[C@H]1C(=O)N1CCC[C@H]1C(=O)N1CCC[C@H]1C(=O)N[C@@H](CO)C(N)=O)[C@@H](C)CC)C(=O)O` [compound 129] were, in that order, 0.0041 nM and 0.0148 nM.
Turning to `CCCCCCCCCCCCCCCC(=O)N[C@@H](CCC(=O)NCCCC[C@H](NC(=O)[C@H](CCC(N)=O)NC(=O)[C@H](CCCCN)NC(=O)[C@H](CO)NC(=O)[C@H](CC(C)C)NC(=O)[C@H](CC(=O)O)NC(=O)[C@H](CO)NC(=O)[C@@H](NC(=O)[C@H](Cc1ccccc1)NC(=O)[C@@H](NC(=O)CNC(=O)[C@H](CCC(N)=O)NC(=O)[C@@H](CO)NC(=O)[C@@H](N)Cc1c[nH]cn1)[C@@H](C)O)[C@@H](C)O)C(=O)N[C@@H](CCC(=O)O)C(=O)N[C@@H](CO)C(=O)N[C@@H](CCCNC(=N)N)C(=O)N[C@@H](CCCNC(=N)N)C(=O)N[C@@H](C)C(=O)N[C@@H](CCC(N)=O)C(=O)N[C@@H](CC(=O)O)C(=O)N[C@@H](Cc1ccccc1)C(=O)N[C@H](C(=O)N[C@@H](CCC(=O)O)C(=O)N[C@@H](Cc1c[nH]c2ccccc12)C(=O)N[C@@H](CC(C)C)C(=O)N[C@@H](CCCCN)C(=O)NC(C)(C)C(=O)NCC(=O)NCC(=O)N1CCC[C@H]1C(=O)N[C@@H](CO)C(=O)N[C@@H](CO)C(=O)NCC(=O)N[C@@H](C)C(=O)N1CCC[C@H]1C(=O)N1CCC[C@H]1C(=O)N1CCC[C@H]1C(=O)N[C@@H](CO)C(N)=O)[C@@H](C)CC)C(=O)O` [compound 79], the half-maximal effective concentration (EC50) was determined as 0.0075 nM in series [2] and 0.0233 nM in series [3].
